Measured values taken from paper PMC6522524 (Nature Communications, 2019).

Amino acid sequences for entries named in this document (tags omitted). Residues count along the entry.
UniProt P03146, 1-149: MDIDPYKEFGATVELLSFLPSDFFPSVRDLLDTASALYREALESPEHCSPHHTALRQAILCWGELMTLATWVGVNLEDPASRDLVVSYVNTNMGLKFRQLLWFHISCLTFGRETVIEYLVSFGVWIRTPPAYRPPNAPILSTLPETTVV

What was measured:
[1] = biological target: T1, Cp149 (truncated HBV core protein) (Hepatitis B virus genotype D subtype ayw, UniProt P03146); assay type: biochemical; conditions: read-out: IC50, in vitro HBV capsid (core) assembly
T1 construct: Cp149 (amino acids 1–149) is a truncated form of the HBV core protein; made in house; host or cells: Escherichia coli

[2] = ref https://www.drugbank.ca/; cited from earlier work

GLS-4
IC50 [1]: 437 ± 6 nM

L-Adrenaline
pKa value (acidic) [2]: 9.69
pKa value (basic) [2]: 8.91
